The values below come from US7615102B2, “Corrosion and gas hydrate inhibitors with an increased biological degradability and a reduced toxicity” (Clariant Produkte (Deutschland) GmbH, priority 2004, dated 2009).

The nature of this data set: Biodegradability (OECD 306).

As to “Dodecenyl-/tetradecenylsuccinic Acid N,N-dibutylamino-N-tri(ethoxy)ethyl Ester Triethanolamine Salt [Compound from example 13]”, the Biodegradability was 81.5%.

In turn, “Pentapropylenesuccinic Acid N,N-dibutylamino-N-tri(ethoxy)ethyl Ester Triethanolamine Salt [Compound from example 16]” showed a Biodegradability of 85.4%.
